Only a part is listed here, and it is no random draw. Calls of active or inactive are those of the source. Calls come from the whole dose curve; as a rule, active = well fitted activation curve with a large enough effect; inconclusive = small, poorly fitted or top-dose-only effect; inactive = no such curve, though single readings can be large or run the other way.
Experiment: qHTS Assay to Identify Small Molecule Activators of BRCA1 Expression; note: nearly all actives have a fitted effect of over 80% in size
Settings: MCF7-BRCA1-FFLuc reporter, luminescence, 48 h, scaled: vehicle 0%, 10 µM genistein 100%; at 46.1 µM (top of the series) unless noted

Structure (SMILES) | activation
Cc1cc(SC(NC=O)C(Cl)(Cl)Cl)ncn1 (configuration not stated) | inactive: 3.16%
O=P(Nc1ccccn1)(c1cccc2ccccc12)c1cccc2ccccc12 | inactive: -25.1%
CCOC(=O)Nc1cccc([As](=O)(O)O)c1 | inactive: -19%
CCCC1OP(=O)(Nc2ccccc2)OCC1CC (configuration not stated) | inactive: -5.45%
O=C(/C=C/c1ccccc1)OC1CN2CCC1CC2 (configuration not stated) | inactive: 29.8%
CN(C)C1(CNC(=O)c2ccc(S(C)(=O)=O)cc2)CCCCC1 | inactive: -3.15%
Cc1ccc(C(=O)OC2CN3CCC2CC3)cc1 (configuration not stated) | inactive: 11.6%
CC1CCC(C(C)C)C(OP(=O)(Nc2ccccn2)c2ccccc2)C1 (configuration not stated) | inactive: -67.6%
COc1cc([N+](=O)[O-])ccc1[N+](=O)[O-] | inactive: -19.6%
Cc1nn(-c2ccccc2)c2c1P(=O)(N1CCOCC1)N(C)C(c1ccccc1)=N2 (configuration not stated) | inactive: 1.39%
Cc1ccc(OCC(=O)OC2CN3CCC2CC3)cc1 (configuration not stated) | inactive: -10.8%
O=[As](O)(c1cccs1)c1cccs1 | inactive: 0.0828%
NS(=O)(=O)c1cccc(NC(=O)COC(=O)C(O)(c2ccccc2)c2ccccc2)c1 | inactive: -15.9%
O=P1(Nc2ccc(Br)cn2)COc2ccccc2OC1 | inactive: -7.45%
Nc1cccc([As](=O)(O)c2ccccc2)c1 | inactive: 20.4%
O=P1(Nc2ncccn2)COc2ccccc2OC1 | inactive: -8.84%
Cc1ccc(S(=O)(=O)N(CCCN)CCCc2c(C)nc(N)[nH]c2=O)cc1 | inactive: -4%
CC(C)(C)C(=O)NC(Sc1ncccn1)C(Cl)(Cl)Cl (configuration not stated) | inactive: 22%
Clc1n[nH]nc1-c1nn[nH][15n]1 | inactive: -1.95% [at 1.84 µM]
O=P1(N(CCCl)CCCl)NCCC(C(F)(F)F)O1 (configuration not stated) | inactive: 7.5%
CCOP(=O)(Nc1ccc(C)cn1)OCC | inactive: 1.64%
CN(CCCl)Cc1cc(Cl)c(NC2=NCCN2)c(Cl)c1 | inactive: 0%
CCOP(=O)(NC(=NC(C)c1ccccc1)NC(C)c1ccccc1)OCC (configuration not stated) | inactive: -42.7%
CCC1=CC2Cc3nc4ccc(Cl)cc4c(N)c3C(C1)C2 (configuration not stated) | inactive: -63%
O=P1(Nc2ccccn2)COc2ccccc2OC1 | inactive: 13.3%
CC1(CBr)Cn2c(nc3ccccc3c2=O)S1 (configuration not stated) | inactive: 3.48%

Structure (SMILES) | activation
CN(C(=O)Cc1ccc(Cl)c(Cl)c1)[C@@H]1CCCC[C@H]1N1CCCC1 | inactive: 0%
CC(C)/C=N\N=C(\N)N[N+](=O)[O-] | inactive: -3.22%
COc1ccccc1CNC(=O)COC(=O)C(O)(c1ccccc1)c1ccccc1 | inactive: -11.3%
Cc1cccc(OCC(=O)OC2CN3CCC2CC3)c1 (configuration not stated) | inactive: -2.14%
O=[As](O)(c1cccc(O)c1)c1cccc(O)c1 | inactive: -0.63%
CS(=O)(=O)c1ccc(Cl)c(NC(=O)COC(=O)C(O)(c2ccccc2)c2ccccc2)c1 | inactive: -21.3%
O=[As](O)(O)c1cccnc1 | inactive: 17.9%
COc1cc(C(=O)NCC2(N3CCOCC3)CCCCC2)cc(Cl)c1OC(C)C | inactive: -27.5%
O=C(OC1CN2CCC1CC2)c1ccc(Cl)cc1 (configuration not stated) | inactive: -0.167%
CCOP(=O)(Nc1cccc2ccccc12)OCC | inactive: -0.87%
COc1cc(C2NCCC3(OCCO3)C2(C)C)cc(OC)c1OC (configuration not stated) | inactive: 14%
CCCOP(=S)(Nc1nc(N)cc(=O)[nH]1)OCCC | inactive: 19.3%
Cc1ccc(NCCc2c([N+](=O)[O-])cc([N+](=O)[O-])cc2[N+](=O)[O-])cc1 | inactive: -32.4%
Nc1cccc2c([As](=O)(O)O)cccc12 | inactive: 0.358%
O=C(O)COc1ccc([As](=O)(O)O)cc1[N+](=O)[O-] | inactive: -2.5%
Nc1ccccc1[As](=O)(O)c1ccccc1 | inactive: 11.4%
CS(=O)(=O)c1cc([N+](=O)[O-])c2no[n+]([O-])c2c1 | inactive: -44.6%
O=P(Nc1nccs1)(Oc1ccccc1)Oc1ccccc1 | inactive: 0.447%
O=P(Nc1nccs1)(c1ccccc1)c1nc2ccccc2s1 (configuration not stated) | inactive: -55%
CCOP1(=S)c2c(C)nn(CCC#N)c2N=C(c2ccccc2F)N1C (configuration not stated) | inactive: 2.16%
CN(C(=O)Cc1ccc(Cl)c(Cl)c1)[C@H]1CC[C@@]2(CCCO2)C[C@@H]1N1CCCC1 | inactive: 14.3%
O=[N+]([O-])c1ccc2c(c1)nnn2O | inactive: -0.489%
CN(C)C(=O)c1cc([N+](=O)[O-])cc2c1-c1c(cc([N+](=O)[O-])cc1[N+](=O)[O-])C2=O | inactive: -90.6%
CCOP1(=S)c2c(C)nn(CCC#N)c2N=C(c2ccc(F)cc2)N1C (configuration not stated) | inactive: -1.4%
CN(C(=O)Cc1ccccc1)[C@@H]1CC[C@]2(CCCO2)C[C@H]1N1CCCC1 | inactive: 23.1%
N#CCCN(C(=O)COC(=O)C(O)(c1ccccc1)c1ccccc1)c1ccc(F)cc1 | inactive: -29.2%

— PubChem BioAssay AID624202 (National Center for Advancing Translational Sciences (NCATS), 2012)
